Drawing on PubChem BioAssay AID504374 (National Center for Advancing Translational Sciences (NCATS), 2011), this text covers activity, negative = inhibition for 1 compound.

Sequences of proteins named here, by UniProt entry; tags and fusion partners are left off.
UniProt Q01196, whole entry, looked up: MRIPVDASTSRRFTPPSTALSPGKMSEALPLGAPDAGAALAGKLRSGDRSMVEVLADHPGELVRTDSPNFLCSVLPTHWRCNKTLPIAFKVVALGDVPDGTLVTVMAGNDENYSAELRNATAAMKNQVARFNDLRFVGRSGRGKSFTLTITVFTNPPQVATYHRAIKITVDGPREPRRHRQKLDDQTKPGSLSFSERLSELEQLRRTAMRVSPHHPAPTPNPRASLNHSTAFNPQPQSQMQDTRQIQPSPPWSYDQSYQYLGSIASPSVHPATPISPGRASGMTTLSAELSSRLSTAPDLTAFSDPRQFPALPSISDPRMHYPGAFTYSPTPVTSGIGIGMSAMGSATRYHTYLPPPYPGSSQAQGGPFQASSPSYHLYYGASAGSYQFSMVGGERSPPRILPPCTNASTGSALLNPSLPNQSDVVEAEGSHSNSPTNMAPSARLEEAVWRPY
UniProt Q13951, whole entry, looked up: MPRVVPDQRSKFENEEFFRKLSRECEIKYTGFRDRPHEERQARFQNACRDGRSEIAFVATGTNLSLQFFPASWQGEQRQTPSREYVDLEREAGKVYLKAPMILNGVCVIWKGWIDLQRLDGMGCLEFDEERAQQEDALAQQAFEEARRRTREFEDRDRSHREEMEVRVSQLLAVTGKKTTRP

Only a part is listed here, and it is no random draw. Inconclusive results are not listed. Calls of active or inactive are those of the source. Calls follow the shape of the dose curve; as a rule, active = well fitted inhibition curve with a large enough effect; inconclusive = small, poorly fitted or top-dose-only effect, or effect the other way; inactive = flat fitted curve, though single readings scatter.
% is scaled to controls: 0 for no effect and ±100 for the full control effect.

The assay deals with Runt-related transcription factor 1 (Homo sapiens) + Core-binding factor subunit beta (Homo sapiens) (UniProt Q01196+Q13951). The experiment in a line: qHTS Assay for Compounds Blocking the Interaction Between CBF-beta and RUNX1 for the Treatment of Acute Myeloid Leukemia: Hit Validation. Also: nearly all actives have a fitted effect of over 60% in size. The settings on record: AlphaScreen CBFb-His/RUNX1-biotin binding; at 59.8 µM (top of the series). (In qHTS, concentration-response curves come from the screen itself.)
Turning to `O=[N+]([O-])c1ccc(OP2(=O)COCCO2)cc1` (stereo unspecified), the activity, negative = inhibition is inactive: -9.25%.
